# Laboratory results taken from patent US20260137791A1 (published 2026).
# B1: BCY509 (peptide)
# peptide: ACPFPVEWCPRCA
# modifications: the three cysteines (Ci, Cii, Ciii) cyclised with TBMB (1,3,5-tris(bromomethyl)benzene)
# notes: Bicyclic peptide on TBMB scaffold, no fluorescent tag
# B2: BCY507 (peptide)
# peptide: ACPFPVEWCSRCA
# modifications: the three cysteines (Ci, Cii, Ciii) cyclised with TBMB (1,3,5-tris(bromomethyl)benzene)
# notes: as for B1
# B3: BCY508 (peptide)
# peptide: ACPFPEEWCPRCA
# modifications: the three cysteines (Ci, Cii, Ciii) cyclised with TBMB (1,3,5-tris(bromomethyl)benzene)
# notes: as for B1
# B4: BCY515 (peptide)
# peptide: ACPDPHGICHLWCA
# modifications: the three cysteines (Ci, Cii, Ciii) cyclised with TBMB (1,3,5-tris(bromomethyl)benzene)
# notes: as for B1
# B5: BCY516 (peptide)
# peptide: ACPDPHNICHLWCA
# modifications: the three cysteines (Ci, Cii, Ciii) cyclised with TBMB (1,3,5-tris(bromomethyl)benzene)
# notes: as for B1
# B6: BCY514 (peptide)
# peptide: ACPDNNSICHLWCA
# modifications: the three cysteines (Ci, Cii, Ciii) cyclised with TBMB (1,3,5-tris(bromomethyl)benzene)
# notes: as for B1
# Molecular target: T1, human PD-L1 (human, UniProt Q9NZQ7 19-238)
# T1 construct: Soluble recombinant protein; In the SPR assay it was biotinylated and captured on streptavidin; also called hPD-L1; Programmed cell death 1 ligand 1
# Test: fluorescence polarisation competition, competitor tracer BCY585
# Experimental: (§1) Affinity of the peptides of the invention for human PD-L1 (Ki) was determined using a fluorescence polarisation assay, in accordance with the methods disclosed in WO2016/067035. Peptides of the invention with a fluorescent tag (either fluorescein, SIGMA or Alexa Fluor488™, Fisher Scientific) were diluted to 2.5 nM in PBS with 0.01% tween 20 or 50 mM HEPES with 100 mM NaCl and 0.01% tween pH 7.4 (both referred to as assay buffer). This was combined with a titration of protein in the same assay buffer as the peptide to give 1 nM peptide in a total volume of 25 μL in a black walled and bottomed low bind low volume 384 well plates, typically 5 μL assay buffer, 10 μL protein then 10 μL fluorescent peptide. […] Measurements were conducted on a BMG PHERAstar FS equipped with an “FP 485 520 520” optic module which excites at 485 nm and detects parallel and perpendicular emission at 520 nm. The PHERAstar FS was set at 25° C. with 200 flashes per well and a positioning delay of 0.1 second, with each well measured at 5 to 10 minute intervals for 60 minutes. The gain used for analysis was determined for each tracer at the end of the 60 minutes where there was no protein in the well. Data was analysed using Systat Sigmaplot version 12.0. mP values were fit to a user defined quadratic equation to generate a Kd value: f=ymin+(ymax−ymin)/Lig*((x+Lig+Kd)/2−sqrt((((x+Lig+Kd)/2)\hat{ }2)−(Lig*x))). “Lig” was a defined value of the concentration of tracer used.
# Peptides were diluted to an appropriate concentration in assay buffer as described in the direct binding assay with a maximum of 5% DMSO, then serially diluted 1 in 2. Five μL of diluted peptide was added to the plate followed by 10 μL of human PD-L1, then 10 μL fluorescent peptide added. Measurements were conducted as for the direct binding assay, however the gain was determined prior to the first measurement.
row,Ki,Binder
1,6.53 nM,B1
2,157 nM,B2
3,75.1 nM,B3
4,51.2 nM,B4
5,48.8 nM,B5
6,165 nM,B6

# Molecular target: T1, human PD-L1
# Test: fluorescence polarisation, listed in Table 1 (direct binding assay); mean of 4 experiments
# Experimental: Affinity of the peptides of the invention for human PD-L1 (Ki) was determined using a fluorescence polarisation assay, in accordance with the methods disclosed in WO2016/067035. Peptides of the invention with a fluorescent tag (either fluorescein, SIGMA or Alexa Fluor488™, Fisher Scientific) were diluted to 2.5 nM in PBS with 0.01% tween 20 or 50 mM HEPES with 100 mM NaCl and 0.01% tween pH 7.4 (both referred to as assay buffer). This was combined with a titration of protein in the same assay buffer as the peptide to give 1 nM peptide in a total volume of 25 μL in a black walled and bottomed low bind low volume 384 well plates, typically 5 μL assay buffer, 10 μL protein then 10 μL fluorescent peptide. […] Measurements were conducted on a BMG PHERAstar FS equipped with an “FP 485 520 520” optic module which excites at 485 nm and detects parallel and perpendicular emission at 520 nm. The PHERAstar FS was set at 25° C. with 200 flashes per well and a positioning delay of 0.1 second, with each well measured at 5 to 10 minute intervals for 60 minutes. The gain used for analysis was determined for each tracer at the end of the 60 minutes where there was no protein in the well. Data was analysed using Systat Sigmaplot version 12.0. mP values were fit to a user defined quadratic equation to generate a Kd value: f=ymin+(ymax−ymin)/Lig*((x+Lig+Kd)/2−sqrt((((x+Lig+Kd)/2)\hat{ }2)−(Lig*x))). […]
row,Kd,Binder
1,7.88 nM,B1

# Molecular target: T1, human PD-L1
# Test: SPR (Biacore 3000), biotinylated PD-L1 captured on streptavidin, peptide as analyte
# Experimental: Biacore experiments were performed to determine kₐ (M⁻¹s⁻¹), kd (s⁻¹), KD (nM) values of monomeric peptides binding to human PD-L1 protein. […] The protein was desalted to remove uncoupled biotin using spin columns into PBS. For analysis of binding, a Biacore 3000 instrument was used utilizing a CM5 sensor chip (GE Healthcare). Streptavidin was immobilized on the chip using standard amine-coupling chemistry at 2500 with HBS-N (10 mM HEPES, 0.15 M NaCl, pH 7.4) as the running buffer. The carboxymethyl dextran surface was activated with a 12 min injection of a 1:1 ratio of 0.4 M 1-ethyl-3-(3-dimethylaminopropyl) carbodiimide hydrochloride (EDC)/0.1 M N-hydroxy succinimide (NHS) at a flow rate of 10 μl/min. For capture of streptavidin, protein was diluted to 0.1 mg/ml in 10 mM sodium acetate (pH 4.5) and captured by injecting 70 μl onto the activated chip surface. Residual activated groups were blocked with a 7 min injection of 1 M ethanolamine (pH 8.5). Biotinylated PD-L1 stock was diluted 1:100 in HBS-N and captured on one flow cell at 5 μl/min to a level of 1000-1300 RU. Buffer was changed to PBS/0.05% Tween 20 and a dilution series of the peptides was prepared in this buffer with a final DMSO concentration of 0.5%. The top concentrations were 200 nM or 500 nM with 6 2-fold dilutions. The SPR analysis was run at 25° C. at a flow rate of Flow rate 50 μl/min with 60 seconds association and 400 seconds disassociation. Data were corrected for DMSO excluded volume effects. All data were double-referenced for blank injections and reference surface using standard processing procedures and data processing and kinetic fitting were performed using Scrubber software, version 2.0c (Biologic Software). Data were fitted using mass transport model allowing for mass transport effects where appropriate.
row,Kd,Binder
1,24.1 nM,B1
2,212 nM,B4
3,171 nM,B5

# Molecular target: T1, human PD-L1
# Test: fluorescence polarisation, listed in Table 1 (direct binding assay)
# Experimental: as §1
row,Kd,Binder
1,157 nM,B2
2,75.1 nM,B3
3,51.2 nM,B4
4,48.8 nM,B5
5,165 nM,B6
